Biological target: Receptor-type tyrosine-protein kinase FLT3 (Homo sapiens, UniProt P36888)

Amino acid sequences for entries named in this document (tags omitted).
UniProt P36888, whole entry: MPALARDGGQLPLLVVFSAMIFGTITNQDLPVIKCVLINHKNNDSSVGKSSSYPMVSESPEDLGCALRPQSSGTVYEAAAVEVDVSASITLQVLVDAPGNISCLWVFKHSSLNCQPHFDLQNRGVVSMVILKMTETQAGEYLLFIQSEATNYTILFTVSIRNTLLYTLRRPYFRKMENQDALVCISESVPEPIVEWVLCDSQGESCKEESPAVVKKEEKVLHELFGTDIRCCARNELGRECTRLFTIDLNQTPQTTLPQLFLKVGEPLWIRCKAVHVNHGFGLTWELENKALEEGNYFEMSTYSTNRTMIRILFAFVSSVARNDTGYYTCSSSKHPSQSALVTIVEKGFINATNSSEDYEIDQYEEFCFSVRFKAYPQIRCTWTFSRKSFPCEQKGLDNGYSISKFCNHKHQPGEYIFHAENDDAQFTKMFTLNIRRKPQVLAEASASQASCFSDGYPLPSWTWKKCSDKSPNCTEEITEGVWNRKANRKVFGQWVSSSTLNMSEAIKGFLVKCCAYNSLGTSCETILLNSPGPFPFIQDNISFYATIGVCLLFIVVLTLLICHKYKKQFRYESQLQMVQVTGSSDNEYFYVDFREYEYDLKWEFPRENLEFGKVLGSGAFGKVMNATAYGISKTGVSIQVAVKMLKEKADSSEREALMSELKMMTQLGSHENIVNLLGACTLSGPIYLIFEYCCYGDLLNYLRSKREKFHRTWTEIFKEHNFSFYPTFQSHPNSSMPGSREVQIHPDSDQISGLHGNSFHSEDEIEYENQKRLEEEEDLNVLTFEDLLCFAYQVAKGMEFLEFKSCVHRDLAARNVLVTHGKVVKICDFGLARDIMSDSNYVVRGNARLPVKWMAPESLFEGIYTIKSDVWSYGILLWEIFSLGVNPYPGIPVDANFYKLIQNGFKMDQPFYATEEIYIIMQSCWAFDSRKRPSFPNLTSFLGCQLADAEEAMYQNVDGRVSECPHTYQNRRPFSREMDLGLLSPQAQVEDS

T1/2 [min] | SMILES
5.9 | C=CS(=O)(=O)NC/C=C/c1cc(OC)cc(O)c1C(=O)OC(C)C
6.8 | C=CC(=O)NC/C=C/c1cc(OCCCN2CCOCC2)cc(O)c1C(=O)OC(C)C

Reference: ChEMBL document CHEMBL3352474, “Design, synthesis and biological evaluation of FLT3 covalent inhibitors with a resorcylic acid core” (Bioorg Med Chem, 2014)
